Measured affinities in a library of Ab-14 heavy chain variants

Target peptide (SARS-CoV-2 spike, HR2 region): PDVDLGDISGINAS

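The library (AAYL49) carries one to three amino acid substitutions per variant, with no insertions or deletions. AlphaSeq pools MATa yeast showing the antibodies with MATalpha yeast showing the peptide. The frequency of each diploid, read from paired DNA barcodes, reflects how well the two displayed proteins bind. Read counts were normalised to the haploid input and turned into Kd by a linear fit to BCL2-family pairs of known affinity, for each replicate. The assay was run in three technical replicates.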

The variants keep the light chain, the linker and the frameworks of Ab-14 (scFv order VH, three GGGGS repeats, VL).
VH: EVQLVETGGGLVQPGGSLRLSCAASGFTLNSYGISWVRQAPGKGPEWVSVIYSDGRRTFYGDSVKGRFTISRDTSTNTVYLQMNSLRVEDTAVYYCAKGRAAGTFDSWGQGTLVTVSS
VL: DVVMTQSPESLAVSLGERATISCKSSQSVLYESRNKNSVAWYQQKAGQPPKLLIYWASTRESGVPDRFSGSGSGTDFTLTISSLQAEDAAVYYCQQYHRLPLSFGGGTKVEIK

Changes read parent residue, position, new residue, counted from the first residue of the VH shown.
Every variant below is changed at G103 of the VH (sequential numbering).
Values are apparent Kd, the geometric mean of the replicates that gave a signal; lower means stronger binding.
"no signal" means that the variant was in the library but no mating with the target was seen in any replicate; the authors take this as a sign of poor binding, and no number exists.
Background: pairings of library AAYL49 with three empty control strains gave a value in 15% of cases (median 11 µM, 5th percentile 680 nM). Values in that range, when seen in few replicates, are hard to tell from nonspecific mating.

| changes | apparent Kd | replicates with signal |
|---|---|---|
| V50L+K65A+G103V | 9.0 µM | 2 of 3 |
| T28H+V64G+G103H | 180 nM | 2 of 3 |
| S53E+G103M | 910 µM | 1 of 3 |
| G33Q+V50W+G103D | 44 µM | 3 of 3 |
| F27C+G33C+G103H | 410 µM | 1 of 3 |
| N30S+G103A | 2.2 nM | 3 of 3 |
| K65V+G103R | 38 µM | 1 of 3 |
| Y32G+I34E+G103F | no signal | 0 of 3 |
| D54K+G103K+S107V | 6.3 µM | 1 of 3 |
| Y52Q+S63Y+G103F | no signal | 0 of 3 |
| F27N+R56F+G103C | no signal | 0 of 3 |
| L29S+D62C+G103R | no signal | 0 of 3 |
| S53N+G61D+G103S | no signal | 0 of 3 |
| V50G+G55P+G103Q | 16 µM | 1 of 3 |
| G61S+V64T+G103D | 2.8 nM | 3 of 3 |
| G33P+F59A+G103W | no signal | 0 of 3 |
| Y52G+A101F+G103S | 120 µM | 1 of 3 |
| Y32A+R57F+G103D | 16 µM | 2 of 3 |
| G33V+F59H+G103W | 160 µM | 2 of 3 |
| R100D+G103V | 130 nM | 3 of 3 |
| L29P+T58S+G103H | 13 µM | 1 of 3 |
| G61T+S63D+G103M | no signal | 0 of 3 |
| G33W+G103A+D106S | no signal | 0 of 3 |
| D62W+A102G+G103E | no signal | 0 of 3 |
| D62N+R100I+G103N | 1.2 µM | 1 of 3 |
| L29M+N30S+G103S | 400 nM | 3 of 3 |
| V50K+F59M+G103P | 110 nM | 1 of 3 |
| L29H+R57T+G103Y | 2.4 µM | 2 of 3 |
| T58V+A102D+G103F | 180 nM | 2 of 3 |
| S35W+K65F+G103S | no signal | 0 of 3 |
| I51L+G103Q | no signal | 0 of 3 |
| G103K+D106Q+S107A | 43 nM | 3 of 3 |
| R56I+K65R+G103S | 70 µM | 1 of 3 |
| G61C+G103S+S107R | no signal | 0 of 3 |
| I51K+Y52E+G103M | 21 µM | 3 of 3 |
| Y32M+S53Q+G103V | 130 µM | 1 of 3 |
| D54G+Y60W+G103T | no signal | 0 of 3 |
| S31Q+R56E+G103V | 5.9 nM | 3 of 3 |
| R57D+G61S+G103K | 28 µM | 1 of 3 |
| S35L+G103A+S107W | no signal | 0 of 3 |
| R57D+A101G+G103W | no signal | 0 of 3 |
| S31E+V64F+G103S | 34 µM | 3 of 3 |
| Y52S+G103K+F105Y | 44 µM | 1 of 3 |
| V50L+G103A | no signal | 0 of 3 |
| A101D+G103H | 35 µM | 2 of 3 |

For reference, 6 entries of the list once more:

| changes | apparent Kd | replicates with signal |
|---|---|---|
| S53E+G103M | 910 µM | 1 of 3 |
| S35W+K65F+G103S | no signal | 0 of 3 |
| R56I+K65R+G103S | 70 µM | 1 of 3 |
| S53N+G61D+G103S | no signal | 0 of 3 |
| K65V+G103R | 38 µM | 1 of 3 |
| R57D+A101G+G103W | no signal | 0 of 3 |

Values reported by Engelhart et al. 2022, doi:10.1038/s41597-022-01779-4 (FLAb copy).